CycPeptMPDB entries from one study

Data: CycPeptMPDB; original report Kelly et al. 2021, doi:10.1021/jacs.0c06115.

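The data file gives no further conditions (lipid, pH, time, direction or concentration), and values from different papers need not be comparable. Other peptides of the study may be missing here. Entries at the database's floor value (log10 P of -10) are not listed.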

PAMPA measures passive passage through an artificial lipid membrane. Values are log10 P with P in cm/s, so -5 is more permeable than -7.

Listed for CC(=O)N1CCC[C@@H]1C(=O)N(C)[C@H](CC(C)C)C(=O)N[C@@H]1C(=O)N[C@H](CC(C)C)C(=O)N[C@H](CC(C)C)C(=O)N[C@H](CC(C)C)C(=O)N(C)[C@H](C)C(=O)N[C@@H](CC(C)C)C(=O)N2CCC[C@H]2C(=O)O[C@@H]1C: PAMPA -6.38 (log10 cm/s). The entry for CC(=O)N1CCC[C@H]1C(=O)N[C@@H]1C(=O)N[C@H](CC(C)C)C(=O)N(C)[C@@H](CC(C)C)C(=O)N(C)[C@H](CC(C)C)C(=O)N(C)[C@H](CC(C)C)C(=O)N(C)[C@@H](C)C(=O)N[C@@H](CC(C)C)C(=O)N2CCC[C@@H]2C(=O)O[C@@H]1C lists PAMPA -5.24 (log10 cm/s). For CC(=O)N1CCC[C@H]1C(=O)N[C@@H]1C(=O)N(C)[C@H](CC(C)C)C(=O)N[C@H](CC(C)C)C(=O)N[C@@H](CC(C)C)C(=O)N[C@@H](CC(C)C)C(=O)N[C@@H](C)C(=O)N[C@@H](CC(C)C)C(=O)N2CCC[C@@H]2C(=O)O[C@@H]1C the data give PAMPA -6.57 (log10 cm/s). Listed for CC(=O)N1CCC[C@H]1C(=O)N(C)[C@@H](CC(C)C)C(=O)N[C@@H]1C(=O)N(C)[C@@H](CC(C)C)C(=O)N[C@@H](CC(C)C)C(=O)N(C)[C@H](CC(C)C)C(=O)N[C@@H](C)C(=O)N[C@@H](CC(C)C)C(=O)N2CCC[C@H]2C(=O)O[C@@H]1C: PAMPA -5.39 (log10 cm/s). CC(=O)N1CCC[C@@H]1C(=O)N(C)[C@@H](CC(C)C)C(=O)N[C@@H]1C(=O)N[C@H](CC(C)C)C(=O)N(C)[C@H](CC(C)C)C(=O)N[C@H](CC(C)C)C(=O)N(C)[C@H](C)C(=O)N[C@@H](CC(C)C)C(=O)N2CCC[C@@H]2C(=O)O[C@@H]1C is reported with PAMPA -5.07 (log10 cm/s). Listed for CC(=O)N1CCC[C@@H]1C(=O)N(C)[C@H](CC(C)C)C(=O)N[C@@H]1C(=O)N[C@H](CC(C)C)C(=O)N[C@H](CC(C)C)C(=O)N[C@H](CC(C)C)C(=O)N[C@@H](C)C(=O)N[C@@H](CC(C)C)C(=O)N2CCC[C@@H]2C(=O)O[C@@H]1C: PAMPA -6.92 (log10 cm/s). CC(=O)N1CCC[C@H]1C(=O)N(C)[C@H](CC(C)C)C(=O)N[C@@H]1C(=O)N[C@H](CC(C)C)C(=O)N[C@@H](CC(C)C)C(=O)N(C)[C@@H](CC(C)C)C(=O)N[C@@H](C)C(=O)N[C@@H](CC(C)C)C(=O)N2CCC[C@@H]2C(=O)O[C@@H]1C has PAMPA -5.21 (log10 cm/s).

For CC(=O)N1CCC[C@H]1C(=O)N[C@@H]1C(=O)N[C@H](CC(C)C)C(=O)N[C@H](CC(C)C)C(=O)N[C@@H](CC(C)C)C(=O)N(C)[C@@H](CC(C)C)C(=O)N[C@@H](C)C(=O)N[C@@H](CC(C)C)C(=O)N2CCC[C@@H]2C(=O)O[C@@H]1C the data give PAMPA -5.62 (log10 cm/s). The entry for CC(=O)N1CCC[C@H]1C(=O)N(C)[C@@H](CC(C)C)C(=O)N[C@@H]1C(=O)N[C@@H](CC(C)C)C(=O)N[C@@H](CC(C)C)C(=O)N[C@H](CC(C)C)C(=O)N(C)[C@H](C)C(=O)N[C@@H](CC(C)C)C(=O)N2CCC[C@H]2C(=O)O[C@@H]1C lists PAMPA -5.63 (log10 cm/s). The entry for CC(=O)N1CCC[C@H]1C(=O)N[C@@H]1C(=O)N(C)[C@H](CC(C)C)C(=O)N(C)[C@@H](CC(C)C)C(=O)N(C)[C@H](CC(C)C)C(=O)N[C@@H](CC(C)C)C(=O)N(C)[C@H](C)C(=O)N[C@@H](CC(C)C)C(=O)N2CCC[C@@H]2C(=O)O[C@@H]1C lists PAMPA -4.95 (log10 cm/s). CC(=O)N1CCC[C@@H]1C(=O)N(C)[C@@H](CC(C)C)C(=O)N[C@@H]1C(=O)N(C)[C@H](CC(C)C)C(=O)N[C@@H](CC(C)C)C(=O)N[C@H](CC(C)C)C(=O)N(C)[C@H](C)C(=O)N[C@@H](CC(C)C)C(=O)N2CCC[C@H]2C(=O)O[C@@H]1C is reported with PAMPA -5.22 (log10 cm/s). CC(=O)N1CCC[C@@H]1C(=O)N(C)[C@@H](CC(C)C)C(=O)N[C@@H]1C(=O)N(C)[C@H](CC(C)C)C(=O)N(C)[C@H](CC(C)C)C(=O)N[C@@H](CC(C)C)C(=O)N(C)[C@H](C)C(=O)N[C@H](CC(C)C)C(=O)N2CCC[C@H]2C(=O)O[C@@H]1C is reported with PAMPA -5.33 (log10 cm/s). CC(=O)N1CCC[C@@H]1C(=O)N(C)[C@@H](CC(C)C)C(=O)N[C@@H]1C(=O)N[C@@H](CC(C)C)C(=O)N[C@@H](CC(C)C)C(=O)N[C@@H](CC(C)C)C(=O)N(C)[C@H](C)C(=O)N[C@@H](CC(C)C)C(=O)N2CCC[C@H]2C(=O)O[C@@H]1C is reported with PAMPA -6.04 (log10 cm/s). For CC(=O)N1CCC[C@@H]1C(=O)N(C)[C@@H](CC(C)C)C(=O)N[C@@H]1C(=O)N(C)[C@@H](CC(C)C)C(=O)N(C)[C@H](CC(C)C)C(=O)N(C)[C@H](CC(C)C)C(=O)N(C)[C@@H](C)C(=O)N[C@H](CC(C)C)C(=O)N2CCC[C@@H]2C(=O)O[C@@H]1C the data give PAMPA -5.55 (log10 cm/s).

Listed for CC(=O)N1CCC[C@@H]1C(=O)N(C)[C@H](CC(C)C)C(=O)N[C@@H]1C(=O)N[C@H](CC(C)C)C(=O)N(C)[C@@H](CC(C)C)C(=O)N[C@@H](CC(C)C)C(=O)N(C)[C@@H](C)C(=O)N[C@@H](CC(C)C)C(=O)N2CCC[C@@H]2C(=O)O[C@@H]1C: PAMPA -5.43 (log10 cm/s). CC(=O)N1CCC[C@H]1C(=O)N(C)[C@H](CC(C)C)C(=O)N[C@@H]1C(=O)N[C@@H](CC(C)C)C(=O)N(C)[C@H](CC(C)C)C(=O)N[C@H](CC(C)C)C(=O)N(C)[C@H](C)C(=O)N[C@@H](CC(C)C)C(=O)N2CCC[C@@H]2C(=O)O[C@@H]1C has PAMPA -5.48 (log10 cm/s). Listed for CC(=O)N1CCC[C@H]1C(=O)N(C)[C@H](CC(C)C)C(=O)N[C@@H]1C(=O)N[C@H](CC(C)C)C(=O)N[C@H](CC(C)C)C(=O)N(C)[C@H](CC(C)C)C(=O)N(C)[C@@H](C)C(=O)N[C@@H](CC(C)C)C(=O)N2CCC[C@H]2C(=O)O[C@@H]1C: PAMPA -5.69 (log10 cm/s). CC(=O)N1CCC[C@@H]1C(=O)N(C)[C@H](CC(C)C)C(=O)N[C@@H]1C(=O)N[C@@H](CC(C)C)C(=O)N[C@@H](CC(C)C)C(=O)N(C)[C@@H](CC(C)C)C(=O)N(C)[C@H](C)C(=O)N[C@H](CC(C)C)C(=O)N2CCC[C@@H]2C(=O)O[C@@H]1C is reported with PAMPA -6.03 (log10 cm/s). For CC(=O)N1CCC[C@H]1C(=O)N(C)[C@H](CC(C)C)C(=O)N[C@@H]1C(=O)N[C@@H](CC(C)C)C(=O)N[C@H](CC(C)C)C(=O)N(C)[C@H](CC(C)C)C(=O)N[C@@H](C)C(=O)N[C@H](CC(C)C)C(=O)N2CCC[C@@H]2C(=O)O[C@@H]1C the data give PAMPA -6.98 (log10 cm/s). The entry for CC(=O)N1CCC[C@H]1C(=O)N(C)[C@@H](CC(C)C)C(=O)N[C@@H]1C(=O)N(C)[C@@H](CC(C)C)C(=O)N[C@@H](CC(C)C)C(=O)N[C@@H](CC(C)C)C(=O)N(C)[C@@H](C)C(=O)N[C@@H](CC(C)C)C(=O)N2CCC[C@H]2C(=O)O[C@@H]1C lists PAMPA -6.68 (log10 cm/s).

Extract of 2 entries:

{"smiles": "CC(=O)N1CCC[C@@H]1C(=O)N(C)[C@@H](CC(C)C)C(=O)N[C@@H]1C(=O)N(C)[C@@H](CC(C)C)C(=O)N(C)[C@H](CC(C)C)C(=O)N(C)[C@H](CC(C)C)C(=O)N(C)[C@@H](C)C(=O)N[C@H](CC(C)C)C(=O)N2CCC[C@@H]2C(=O)O[C@@H]1C", "PAMPA (log10 cm/s)": "-5.55"}
{"smiles": "CC(=O)N1CCC[C@@H]1C(=O)N(C)[C@H](CC(C)C)C(=O)N[C@@H]1C(=O)N[C@H](CC(C)C)C(=O)N(C)[C@@H](CC(C)C)C(=O)N[C@@H](CC(C)C)C(=O)N(C)[C@@H](C)C(=O)N[C@@H](CC(C)C)C(=O)N2CCC[C@@H]2C(=O)O[C@@H]1C", "PAMPA (log10 cm/s)": "-5.43"}